TCR act = T cell receptor activation. primary human leukocytes, anti-CD3, IL-2 HTRF, 48 h. Potency, µM (highest dose often 9.22 µM), without a hit: at the highest dose activation of IL-2 secretion, actives largely listed as activators. 330,000 tested, under 10 active. AID 504894; also: % of control where 0% means no effect
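Readout: HTRF IL-2, Eu-cryptate/d2 antibody pair, 320nm excitation, 665nm emission. Stimulus: a-CD3 beads, no co-stimulation. Cells: primary human leukocytes. Exposure: 48 hr with compound.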
Nrf2 block = blocks Nrf2 signaling; A549 ARE-Fluc reporter, luciferase luminescence, 18-24 h; Potency, µM (highest dose often 46 µM), inactives show top-dose activity change, negative = inhibition, actives largely listed as inhibitors; actives 2.1% (n = 360,000); also: potency is read from the fitted curve at half-maximal effect; % is scaled to controls: 0 for no effect and ±100 for the full control effect; nearly all actives have a fitted effect of over 60% in size
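A549 ARE_Fluc cells (5000/well, 5% FBS OPTI-MEM) pre-incubated 2 h, then treated with compounds 18-24 h at 37C/5% CO2 in concentration-response. CellTiter-Fluor viability read first; BugLite luciferase luminescence after 15 min at room temperature gives Nrf2 activity.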
ClpP mod = qHTS Assay for Activators of ClpP; ATP-dependent Clp protease proteolytic subunit (Bacillus subtilis (strain 168)), P80244; purified B. subtilis ClpP, FRET peptide cleavage, 20 min; Potency, µM (highest dose often 57.5 µM), for the others: top-dose activity change, negative = active; actives 1.9% (n = 340,000); AID 651965, 2013; active = well fitted falling curve with a large enough effect; inconclusive = small, poorly fitted or top-dose-only effect; inactive = no such curve, though single readings can be large or run the other way; also: potency is read from the fitted curve at half-maximal effect; the source files actives as falling curves though it sought activators and does not explain the sign; nearly all actives have a fitted effect of over 65% in size
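Purified B. subtilis ClpP, 10 microg/mL final in Tris/HCl pH8 with KCl, BSA, glycerol and Tween-20, cleaved an Abz/nitrotyrosine-quenched decapeptide. Fluorescence (ex 320, em 430) was read at 0 and 20 min at room temperature. Delta was normalized to 5.8 microM ADEP and DMSO/no-enzyme controls.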
A549 tox = counter-screen for Nrf2 inhibitors: cytotoxicity in A549 cells | A549 ARE-Fluc cells, CellTiter-Fluor viability, 18-24 h | Potency, µM (titrated, usually from 46 µM), inactives show top-dose activity change, negative = cytotoxicity, most hits filed as inhibitors | actives 0.16% (n = 390,000) | AID 504648; also: potency is read from the fitted curve at half-maximal effect; % is scaled to controls: 0 for no effect and ±100 for the full control effect
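A549 ARE_Fluc cells in 5% FBS OPTI-MEM were exposed to compounds in concentration-response for 18-24 h at 37 deg C. Viability was read by CellTiter-Fluor fluorescence (Ex 405/Em 525) after 30 min, before the luciferase read.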
miR-21 reporter = miR-21 reporter, rising signal; HeLa miR-21 FLuc reporter, luciferase, 48 h; Potency, µM (doses to about 38.3 µM), for inactives: at the highest dose reporter change, positive = more light; 340,000 tested, under 10 active; AID 2288; active = well fitted rising curve with a large enough effect; inconclusive = small, poorly fitted or top-dose-only effect; inactive = no such curve, though single readings can be large or run the other way;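 further: % of control where 0% means no effect; miR-21 action dims this reporter so a rising signal means less miR-21 action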
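HeLa cells endogenously expressing miR-21, stably carrying CMV-driven firefly luciferase with a downstream miR-21 binding site, 2000 cells/well. Titrations up to approximately 40 uM, 48 hours; luciferase luminescence read.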
Nrf2 ARE act = Nrf2 pathway activation | AREc32 ARE-luciferase reporter (MCF7-derived line), luminescence, 24 h | Potency, µM (doses to about 46.1 µM), inactives show at the highest dose activation, most hits filed as activators | actives 0.31% (n = 410,000) | AID 624171; also: potency is read from the fitted curve at half-maximal effect; % of control where 0% means no effect; nearly all actives have a fitted effect of over 65% in size
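For detection, Steady-Glo was added and plates sat 30 min at RT; before that, AREc32_Fluc cells grown overnight in OPTI-MEM/5% FBS had been treated with 23 nL compound for 24 hr at 37 deg C.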
The depositor's hits bear a star; ? = inconclusive; . = not tested or not shown; [ ] = dose if it differs, or a comment. Rows were chosen to be rich in hits. Some 3.7% of all compounds tested hit in one or more screens of this group. Unless noted, calls follow the shape of the dose curve; as a rule, active = well fitted curve in the direction sought with a large enough effect; inconclusive = small, poorly fitted or top-dose-only effect, or another doubt; inactive = no such curve, though single readings can be large; an effect the other way counts as inactive or inconclusive.

A first look (three entries):
The line under a structure holds: A549 tox | TCR act | Nrf2 block | miR-21 reporter | Nrf2 ARE act | ClpP mod
[1] Cc1ccc2c(N)c(C#N)sc2n1
    -12.1% | -2.5% | -13.5% | -23.3% | 0.4% | -5.0%
[2] O=C(NCC(F)(F)F)c1ccc2sc([C@@H]3O[C@H](CO)[C@H](O)[C@H](O)[C@H]3O)nc2c1
    . | . | . | . | 0.8%[9.22 µM] | 1.6%
[3] Cc1ccc(-n2nnnc2SCc2nc3sc(C)c(C)c3c(=O)[nH]2)cc1
    -5.8% | -0.9% | -13.2% | -5.3% | -0.4% | 3.55µM*

This part in full, previewed entries included:
The line under a structure holds: A549 tox | TCR act | Nrf2 block | miR-21 reporter | Nrf2 ARE act | ClpP mod
[1] Cc1ccc2c(N)c(C#N)sc2n1
    -12.1% | -2.5% | -13.5% | -23.3% | 0.4% | -5.0%
[2] O=C(NCC(F)(F)F)c1ccc2sc([C@@H]3O[C@H](CO)[C@H](O)[C@H](O)[C@H]3O)nc2c1
    . | . | . | . | 0.8%[9.22 µM] | 1.6%
[3] Cc1ccc(-n2nnnc2SCc2nc3sc(C)c(C)c3c(=O)[nH]2)cc1
    -5.8% | -0.9% | -13.2% | -5.3% | -0.4% | 3.55µM*
[4] Cc1ccc(-c2nc(CS(=O)CC(=O)NCCCc3ccccc3)c(C)o2)cc1 (centres undefined)
    -2.7% | -1.0% | 4.0% | -3.1% | 2.7% | -4.7%
[5] CN(C)C=Nc1ncc2c3ccccc3n(Cc3ccccc3)c2c1C#N
    0.6% | -5.7% | . | 7.6% | -0.7% | 31.6µM*
[6] CSCCC(NC(=O)c1cccc([N+](=O)[O-])c1)C(=O)O (centres undefined)
    -0.8% | -2.8% | -14.5% | -6.4% | 0.9% | 25.1µM*
[7] CCOC(=O)c1cnc(-c2ccccc2)nc1Oc1ccccc1
    -1.0% | 0.0% | . | -6.8% | 12.6µM* | -1.4%
[8] CCOC(=O)c1cnc(-c2ccccc2)nc1Oc1ccc(OC)cc1
    1.9% | -11.9% | 4.0% | -0.1% | 0.1% | 1.9%
[9] CCOC(=O)c1cnc(N)nc1-c1ccccc1
    0.3% | -5.2% | -5.3% | . | 0.3% | -0.9%
[10] CCOC(=O)c1cnc(-c2ccccc2)nc1-c1ccccc1
    2.5% | -5.2% | ? | -4.8% | 7.94µM* | .
[11] O=c1oc2cc(O[C@@H]3OC[C@@H](O)[C@H](O)[C@H]3O)ccc2c2ccccc12
    -16.7% | 0.1% | -3.3% | -14.0% | 7.8% | .
[12] CCCN(CCC)C(=O)CC(c1ccccc1)c1cc(Br)ccc1O (centres undefined)
    ? | 0.4% | 16.4µM* | 9.3% | 0.0% | -1.2%
[13] COc1ccc(C(=O)Oc2ccc(/C=N/NC(=O)c3ccccc3OC)cc2[N+](=O)[O-])cc1
    9.6% | 1.3%[46.1 µM] | 8.5% | -7.6% | 0.0% | 28.2µM*
[14] COc1ccc(/C=N/NC(=O)c2cccc([N+](=O)[O-])c2)cc1OC(=O)c1ccc(C)cc1
    ? | -0.7% | 20.6µM* | 8.0% | 0.4% | -3.5%
[15] COc1ccc(C(=O)N/N=C/c2ccc(OC(=O)c3cccc4ccccc34)c([N+](=O)[O-])c2)cc1
    ? | 1.3%[46.1 µM] | -18.1% | -20.2% | 24.3% | 0.2%
[16] Cc1ccc2c(c1)Cc1c(nc(-c3ccc(F)cc3)nc1SCC(=O)N1CCCCC1)O2
    4.4% | . | -10.6% | 2.4% | 4.8% | -3.4%
[17] O=C(NNC(=O)c1ccc(NC(=O)c2ccccc2)cc1)c1ccc(F)cc1
    -3.1% | 15.2% | -8.5% | -6.4% | 0.0% | -16.4%
[18] O=C(Nc1ccc(/C=C/c2nc3ccccc3o2)cc1)c1ccc(F)cc1
    -10.6% | -0.8% | 18.1% | -22.6% | 0.2% | 3.16µM*
[19] CCN(CC)CCNC(=O)c1ccc2c(=O)n3nc(Nc4cccc(Cl)c4C)sc3nc2c1
    -4.6% | . | ? | -3.7% | 0.0% | -9.6%
[20] CCCc1cc(N2CCCC2)n2nc(C)c(-c3ccccc3)c2n1
    -16.8% | 9.0% | ? | -2.9% | -0.8% | 31.6µM*
[21] CCN1CCN(c2cc(C(C)C)nc3c(-c4ccccc4)c(C)nn23)CC1
    -20.9% | 6.1% | -13.2% | 10.1% | 10.1% | .
[22] CCN(CC)c1ccc(NC(=O)C2CCCN(S(=O)(=O)c3cnc[nH]3)C2)c(C)c1 (centres undefined)
    1.3% | 16.9% | 23.1µM* | -7.0% | -0.7% | -2.7%
[23] COc1ccc(-n2nc(C(=O)Nc3ccccc3OC)c3c4ccccc4n(C)c3c2=O)cc1Cl
    15.5% | . | . | -0.5% | 0.6% | -6.2%
[24] Cc1sc2nc[nH]c(=O)c2c1-c1ccc(Cl)cc1
    0.1% | 0.4% | -7.9% | 2.1% | -0.7% | .
[25] CC1CCCC(NC(=O)C2N(CCCN3CCCC3)C(=O)C3C(C(=O)Nc4ccc(Cl)cc4)C4C=CC32O4)C1C (centres undefined)
    -27.4% | 2.4% | 1.8% | -3.1% | 0.3% | .
[26] CC(C)c1ccc(C(C)NCCS(=O)(=O)c2ccc(Cl)cc2)cc1 (centres undefined)
    2.9% | . | -26.1% | 6.9% | 9.5% | -1.0%
[27] c1ccc2c(c1)ccc1[nH]c3c(c12)CCCC3
    -6.2% | 7.8% | ? | . | 4.5% | 17.8µM*
[28] CCOc1ccc(-n2nc(CO)c(C(=O)NCC(C)O)n2)cc1 (centres undefined)
    -3.5% | . | ? | -15.2% | 4.6% | 14.1µM*
[29] Cc1ccc(-n2nc(CO)c(C(=O)NCCC(C)C)n2)cc1C
    -0.9% | . | -11.0% | 18.7% | 1.5% | ?
[30] CCC(C)NC(=O)c1nn(-c2ccc(C)cc2)nc1CO (centres undefined)
    -6.3% | . | -3.5% | -18.8% | 3.4% | ?

An excerpt of these results, as a markdown table:
| item | SMILES | A549 tox | TCR act | Nrf2 block | miR-21 reporter | Nrf2 ARE act | ClpP mod |
| --- | --- | --- | --- | --- | --- | --- | --- |
| 18 | O=C(Nc1ccc(/C=C/c2nc3ccccc3o2)cc1)c1ccc(F)cc1 | -10.6% | -0.8% | 18.1% | -22.6% | 0.2% | 3.16µM* |
| 8 | CCOC(=O)c1cnc(-c2ccccc2)nc1Oc1ccc(OC)cc1 | 1.9% | -11.9% | 4.0% | -0.1% | 0.1% | 1.9% |

Later entries
The line under a structure holds: A549 tox | TCR act | Nrf2 block | miR-21 reporter | Nrf2 ARE act | ClpP mod
[31] CCc1ccc(-n2nc(CO)c(C(=O)NCCOC)n2)cc1
    4.6% | . | ? | -37.6% | 5.6% | 12.6µM*
[32] CCc1ccc(CNC(=O)c2nn(-c3ccc(C)c(C)c3)nc2CO)cc1
    -2.6% | . | 7.0% | 0.2% | -0.1% | 3.55µM*
[33] Cc1ccc(-n2nc(CO)c(C(=O)NCC(c3ccccc3)c3ccccc3)n2)cc1
    -6.1% | . | 2.9% | 3.8% | -0.6% | -10.8%
[34] COCCNC(=O)c1nn(-c2ccc(Cl)cc2)nc1CO
    3.7% | . | 7.5% | -2.4% | 0.5% | 14.1µM*
[35] COc1ccc2[nH]c(C(=O)O)c(CCNC(C)=O)c2c1
    -1.4% | 8.3% | 4.5% | 0.7% | -0.3% | 8.91µM*
[36] CCCCOc1ccc(CSc2nc(C)[nH]c2[N+](=O)[O-])cc1[N+](=O)[O-]
    ? | 0.9% | 14.6µM* | -5.9% | 4.6% | .
[37] CCc1ccc(S(=O)(=O)c2nnn3c2nc(N2CCOCC2)c2sccc23)cc1
    6.3% | . | 11.8% | -11.4% | -0.2% | -3.7%
[38] CC(=O)OCC1=C[C@@H]2OC(=O)C3=CO[C@@H](O[C@@H]4O[C@H](CO)[C@@H](O)[C@H](O)[C@H]4O)[C@H]1[C@@H]32
    -2.1% | 0.4% | 24.1% | . | 0.1% | 1.3%
[39] C=C1C(=O)OC2C=C(CO)C3OC3C3OC3(C)CC(OC(=O)/C(=C/C)COC(C)=O)C12 (centres undefined)
    ? | 3.9% | 23.1µM* | . | ? | -1.2%
[40] COc1ccccc1C(=O)NCCC(=O)NC1CCCCCC1
    -17.5% | 3.3% | 0.6% | . | -0.7% | .
[41] CCCCCCC[n+]1ccc(/C=C/c2c(C)[nH]c3ccccc23)c2ccccc21
    . | . | . | . | . | -2.2%
[42] O=C(CSc1ncnc2ccccc12)c1cccs1
    0.2% | 0.2% | ? | -46.2% | ? | .
[43] Cc1ccc(C(=O)CSc2ncnc3ccccc23)o1
    -2.9% | 9.6% | ? | -48.1% | 12.6µM* | .

Screens: PubChem, National Center for Advancing Translational Sciences (NCATS)
